Activation data for 89 compounds are collected here from PubChem BioAssay AID504692 (The Scripps Research Institute Molecular Screening Center, 2011).

Amino acid sequences for entries named in this document (tags omitted).
UniProt P47898, whole entry, looked up: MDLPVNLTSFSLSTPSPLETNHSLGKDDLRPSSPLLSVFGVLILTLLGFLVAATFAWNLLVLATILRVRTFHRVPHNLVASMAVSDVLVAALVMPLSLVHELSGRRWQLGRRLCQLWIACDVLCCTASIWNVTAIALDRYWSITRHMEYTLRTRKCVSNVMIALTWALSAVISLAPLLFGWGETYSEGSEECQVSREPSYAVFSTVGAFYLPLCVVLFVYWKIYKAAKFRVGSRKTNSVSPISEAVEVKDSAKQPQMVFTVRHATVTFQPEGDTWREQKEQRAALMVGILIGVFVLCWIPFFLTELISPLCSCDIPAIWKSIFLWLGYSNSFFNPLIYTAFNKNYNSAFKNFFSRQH

The structures appear in SMILES notation. The list shows a part of the results, in another mix than the full data. Calls of active or inactive are those of the source. Cut-off read from the data, not from the text of the source: active = activation mostly above about 9.5% (no sharp cut-off); inactive = mostly below about 7.6%.

The test addresses 5-hydroxytryptamine receptor 5A (Homo sapiens) (UniProt P47898). The test can be described thus: HTR5A agonists in luminescence cell assay, primary screen, counter-screen for OPRM1-OPRD1 heterodimer agonist project, full-deck HTS (AID 504692).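 Note: 0% = cells with vehicle only and 100% = reference agonist.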 To be noted: cell-based, at 9.3 µM, hits give high values.
For the compound `Nc1ncnc2c1ncn2CCN1CCOCC1`, the activation is inactive: 3.05%. Consider `CCN(CC)CCNC(=S)N1CCn2c(nc3ccccc32)C1`, for which the activation was inactive: -5.7%. With `CC(C)[C@H](NC(=O)N1CCn2c1nc1ccccc12)C(=O)NC1CCCCC1`, the activation was inactive: -2.57%. Under `Cc1ccc2c(c1)C1CN(C)CCC1N2C(=O)c1cccs1` (centres undefined) stands inactive: 0.6%; under `CC(=O)Nc1ccc(C(=O)CSc2nc3ccccc3n2CC(=O)N2CCCC2)cc1`, inactive: -0.71%; under `O=C(Nc1nc2ccccc2n1CCN1CCCC1)c1ccc(Cl)cc1`, inactive: 2.38%. On to `CC1c2nc3ccccc3n2C(CC(=O)NCc2ccccn2)C(=O)N1Cc1ccccc1` (centres undefined), for which the activation was inactive: 2.65%. For the compound `Cc1ccc2c(c1)C1CN(C)CCC1N2C(=O)COc1ccc(S(=O)(=O)N2CCOCC2)cc1` (centres undefined), the activation is inactive: -0.89%.

`O=C(Cn1c(-c2cscn2)nc2ccccc21)Nc1cc(F)ccc1F`: the activation was inactive: -0.75%. Take `Cc1ccc2c(c1)C1C[N+](C)(CC(=O)c3ccc(Cl)cc3Cl)CCC1N2C(=O)c1ccc(F)cc1` (centres undefined): the activation is inactive: 5.94%.

On to `CCOC(=O)c1ccc(NC(=O)C(C)(CCl)SC)cc1` (centres undefined), for which the activation is inactive: -1.03%. With `CC(C)N(C(=O)Cn1c(Cl)nc2ccccc21)C(C)C`, the activation was inactive: -1.36%. For the compound `CCN(CC)C(=O)Cn1cnc2c1c(=O)n(C)c(=O)n2C`, the activation was inactive: -0.92%. For `O=C(c1ccccc1Cl)N1CCn2c1nc1ccccc12`, the activation was inactive: -3.41%.

On to `COc1ccc(CCNC(=O)[C@H](CC(C)C)NC(=O)N2CCn3c2nc2ccccc23)cc1OC`, for which the activation is inactive: -1.21%.

Take `O=C1Cn2c(nc3ccccc32)-c2ccccc2N1`: the activation is inactive: 3.11%.

Turning to `CCC(NC(=O)Cn1cnc2c(=O)n(C)c(=O)n(C)c21)c1ccccc1` (centres undefined), the activation is inactive: 4.4%. Under `CCCCOc1ccccc1NC(=O)Cn1c(-c2nonc2N)nc2ccccc21` stands inactive: 0.82%. In the case of `O=C(OC1CN2CCC1CC2)c1cccc([N+](=O)[O-])c1` (centres undefined), the activation is inactive: 0.02%. Regarding `CCC(C)[C@H](NC(=O)N1CCn2c1nc1ccccc12)C(=O)NCC1CCCO1` (some centres undefined), the activation was inactive: -1%. With `CCc1cccc(C)c1N(C(=O)Cn1c(=O)[nH]c2ccccc21)C(C)COC` (centres undefined), the activation was inactive: -4.37%.

Turning to `COc1cccc(CNc2nc3ccccc3n2CCN2CCCCC2)c1OC`, the activation was inactive: 1.97%. In the case of `CSc1nc(N)nc2c1ncn2CC(=O)N1CCN(Cc2c(C)cc(C)cc2C)CC1`, the activation is active: 9.34%. To `Cn1c(=O)c2c(nc(CN3CCOCC3)n2CCN2CCOCC2)n(C)c1=O` belongs inactive: 4.9%. To `CCN(CC)CCn1c(NC(=O)c2ccc(C(F)(F)F)cc2)nc2ccccc21` belongs inactive: 2.56%; to `C[C@H](O)[C@@H]1C(=O)N2CCc3ccc(N4CCN(C)CC4)cc3[C@@H]2C[C@@H]1N(C)C(=O)c1ccc(C#N)cc1`, inactive: -0.15%; to `CC1Cc2ccccc2N1C(=O)Cn1cnc2ccccc21` (centres undefined), inactive: 4.35%. Consider `O=S(=O)(Nc1ccc2c(c1)nc1n2CCN(Cc2ccccc2)C1)c1ccc(F)cc1`, for which the activation was inactive: 2.18%. Regarding `CCN(CC)C(=O)Cn1c(=O)n(Cc2ccccc2Cl)c2c1c(=O)n(C)c(=O)n2C`, the activation was inactive: 5.45%. With `Cc1nc2ccccc2n1CCN1CCOCC1`, the activation is inactive: 0.97%. With `CSc1nc2ccccc2n1CC(=O)Nc1ccccc1`, the activation was inactive: 0.98%. To `Cc1ccc(NC(=O)Cn2cnc3ccccc32)cc1C` belongs inactive: -3.47%; to `CCC(C)[C@H](NC(=O)N1CCn2c1nc1ccccc12)C(=O)NCc1ccccc1` (some centres undefined), inactive: -3.87%. `CN1C(=O)C2(Nc3ccccc3-c3nc4ccccc4n32)c2ccccc21` (centres undefined): the activation is inactive: -6.97%. Consider `Cc1ccc2c(c1)C1CN(C)CCC1N2C(=O)Cc1cccs1` (centres undefined), for which the activation is inactive: 13.2%. Take `Cc1ccc2c(c1)[C@@H]1CN(C)CC[C@@H]1N2C(=O)Nc1cccc(C(F)(F)F)c1`: the activation is inactive: -2.86%. Take `Cc1ccc(-c2csc(NC(=O)Cn3cnc4c3c(=O)n(C)c(=O)n4C)n2)cc1C`: the activation was inactive: 3.49%. Under `CCOC(=O)c1ccccc1NC(=O)CSc1nc2ccccc2n1CC(=O)N1CCCC1` stands inactive: 7.49%; under `COc1ccc(N2C(=O)CC(n3cnc4ccccc43)C2=O)cc1` (centres undefined), inactive: 1.7%; under `COc1ccccc1NC(=O)Cn1cnc2c1c(=O)n(C)c(=O)n2C`, inactive: 2.89%. Turning to `CCN1C(=O)C2(Nc3ccccc3-c3nc4ccccc4n32)c2cc(OC)ccc21` (centres undefined), the activation is inactive: 0.9%. To `CC1CC(C)CN(C(=O)Cn2c(SCC(=O)N3CCc4ccccc4C3)nc3ccccc32)C1` (centres undefined) belongs inactive: -3.03%. Take `CCC(C)N(CC(C)C)C(=S)SC(NC(C)=O)C(Cl)(Cl)Cl` (centres undefined): the activation is inactive: -1.35%.

In the case of `CCc1ccc(NC(=O)Cn2c(SC)nc3ccccc32)cc1`, the activation is inactive: -1.34%. For the compound `O=C(Cn1cnc2c(NC(=O)OCc3ccccc3)ncnc21)NCc1ccccn1`, the activation was inactive: -3.59%.

In the case of `Cc1nc2ccccc2n1CC(=O)NN`, the activation was inactive: 1.2%. For the compound `Cc1ccc(NC(=O)CCC(=O)N/N=C/C=C/c2ccccc2)cc1`, the activation is inactive: 0.9%. In the case of `Cc1nc2ccccc2n1CC(=O)N/N=C\c1ccccn1`, the activation was inactive: 4.46%.

For the compound `CC(C)NC(=O)Cn1c(SCC(=O)N2CCCc3ccccc32)nc2ccccc21`, the activation was inactive: -0.23%. Under `O=C(c1ccccc1)N1CCn2c(nc3ccccc32)C1` stands inactive: 6.18%. To `CCc1cccc(C)c1N(C(=O)Cn1c(COC)nc2ccccc21)C(C)COC` (centres undefined) belongs inactive: -5.68%; to `CCc1ccc(S(=O)(=O)N2c3ccc(C)cc3C3CN(C)CCC32)cc1` (centres undefined), inactive: -6.02%; to `O=[N+]([O-])c1ccc2c(c1)nc1n2CCN(c2ccccc2)C1`, inactive: -0.07%. Turning to `N=c1n(CCN2CCCC2)c2ccccc2n1CC(O)c1ccc(Cl)c(Cl)c1` (centres undefined), the activation was inactive: 0.94%. On to `CC(C)NC(=O)Cn1c(SCC(=O)NC2CCCC2)nc2ccccc21`, for which the activation is inactive: 4.52%. On to `O=C(Cn1cnc2c(NC(=O)OCc3ccccc3)ncnc21)NCCN1CCOCC1`, for which the activation is inactive: 2.52%. As to `CC(C)[C@H](NC(=O)N1CCn2c1nc1ccccc12)C(=O)NC1CC1`, the activation was inactive: 1.08%. In the case of `COc1cccc(NC(=O)[C@H](CC(C)C)NC(=O)N2CCn3c2nc2ccccc23)c1`, the activation was inactive: -2.66%. Turning to `COc1ccc2c(c1)C1(Nc3ccccc3-c3nc4ccccc4n31)C(=O)N2C` (centres undefined), the activation was inactive: 2.78%. Under `C=CCn1c(=O)c2c(nc3n2CCN3c2cccc(Cl)c2C)n(C)c1=O` stands inactive: 0.69%. Regarding `COP1(=S)c2c(C)nn(CCC#N)c2N=C(c2ccc(F)cc2)N1C` (centres undefined), the activation is inactive: -2.14%. As to `CN(C)CCn1c(NCc2ccc3c(c2)OCO3)nc2ccccc21`, the activation was inactive: 5.45%. Turning to `COC(=O)C[C@H](NC(=O)Cn1cnc2c(NCc3ccccc3)ncnc21)C(=O)OC`, the activation is inactive: 0.75%. With `Cc1ccc(C)c(S(=O)(=O)N2CCN(C(=O)Cn3cnc4c3c(=O)n(C)c(=O)n4C)CC2)c1`, the activation was inactive: 1.22%. Regarding `O=C(C1CCN(S(=O)(=O)c2cccc3nsnc23)CC1)N1CCn2c1nc1ccccc12`, the activation is inactive: -27.4%. Under `N=c1n(CCN2CCCCC2)c2ccccc2n1CC(=O)c1cccs1` stands inactive: 3.44%; under `CSc1nc(N)nc2c1ncn2CC(=O)Nc1ccc(C)c(C)c1`, inactive: 2.99%; under `O=C(Cn1cnc2c(OCc3ccccc3)ncnc21)N1CCN(c2ccccn2)CC1`, inactive: 2.65%. With `O=C(Nc1ccccc1C(F)(F)F)N1CCC(n2c(=O)[nH]c3ccccc32)CC1`, the activation is inactive: 8.03%.

As for `N#CCC(=O)N/N=C\c1cccc(OC/C=C/c2ccccc2)c1`, the activation was inactive: 4.54%. Under `CC(C)[C@H](NC(=O)N1CCn2c1nc1ccccc12)C(=O)N[C@H](Cc1ccccc1)C(=O)O` stands inactive: 4.25%; under `COC(=O)c1cccc(NC(=O)Cn2cnc3c2c(=O)n(C)c(=O)n3C)c1`, inactive: -3.14%; under `O=C(Cn1cnc2ccccc21)Nc1ccc(F)c(F)c1`, inactive: 4.05%. As for `O=C(COc1ccccc1)OC1CN2CCC1CC2` (centres undefined), the activation is inactive: -2.07%. As to `Cc1ccc2c(c1)C1CN(C)CCC1N2S(=O)(=O)c1cccc(C(F)(F)F)c1` (centres undefined), the activation was inactive: 5.03%. Take `O=C(Nc1ccncc1[N+](=O)[O-])c1ccc([N+](=O)[O-])cc1[N+](=O)[O-]`: the activation is inactive: -1.37%. Under `CCOCN(C(=O)Cn1cnc2ccccc21)c1c(C)cccc1CC` stands inactive: -2.25%; under `Cc1nc2cc(C(F)(F)F)ccc2n1CCNc1nc(-c2ccc(F)cc2)cs1`, inactive: 2.27%; under `c1ccc(Cn2c(CNc3nc4ccccc4n3CCN3CCOCC3)nc3ccccc32)cc1`, inactive: 0.19%. In the case of `CCC(C(=O)NC1CCCCC1)n1c(SCc2cccc(C)c2)nc2ccncc21` (centres undefined), the activation was inactive: 2.39%.

Take `O=C(C1CCCN(S(=O)(=O)c2cccnc2)C1)N1CCn2c1nc1ccccc12` (centres undefined): the activation is inactive: 4.57%. To `COc1ccc(CNC(=O)Cn2cnc3c(NCc4ccccc4)ncnc32)cc1` belongs inactive: -1.51%.

Take `CC(NC(=O)Cn1cnc2c1c(=O)n(C)c(=O)n2C)c1ccccc1` (centres undefined): the activation was inactive: 5.38%. As for `O=C(Cn1cnc2ccccc21)Nc1ccc(SC(F)F)cc1`, the activation was inactive: 2.02%. Regarding `COc1ccc(N/C(=N/P(=O)(N2CCOCC2)N2CCOCC2)N2CCOCC2)cc1`, the activation was inactive: 0.78%. To `CN(C)C(=O)Cn1c(SCC(=O)NCc2ccc3c(c2)OCO3)nc2ccccc21` belongs inactive: -1.37%.

Take `CCN(CC)S(=O)(=O)c1ccc(OC)c(NC(=O)Cn2cnc3c2c(=O)n(C)c(=O)n3C)c1`: the activation is inactive: 0.6%. Turning to `Cn1c(=O)c2ncn(CC(=O)Nc3cccc(-c4nc5ccccc5s4)c3)c2n(C)c1=O`, the activation is inactive: 0.08%. To `O=C(Cn1cnc2c(OCc3ccccc3)ncnc21)NCc1ccccn1` belongs inactive: -1.28%.
